# Measured values published in patent publication US20200362303A1, “MAINTENANCE-AND-AMPLIFICATION METHOD AND DIFFERENTIATION INDUCTION METHOD FOR PRIMORDIAL GERM CELLS/PRIMORDIAL GERM CELL-LIKE CELLS” (KYOTO UNIVERSITY, priority 2017, published 2020).
# Key:
# Format in all cases: cell-based, mouse
# PGC at E11.5 = assay: Ex vivo culture of E11.5 PGC, SCP3/DDX4/SG expression at c4; conditions: cultured 4 days; RA 100 nM, BMP2 300 ng/ml
# Source text: For PGC culture, fetal gonads of SG mice at E11.5 (without gender discrimination) were cut and dissociated. SG (+) PGCs were selected by FACS, plated on m220 feeder cells, and cultured in PGC/PGCLC expansion medium. Reagents for induction of female fate were provided from c0. For fetal gonadal culture, the ovary of the embryonic stage, including the E11.5 [identified by PCR (Primers)] mesonephros, was removed and cultured under conditions of the gas-liquid interface on the culture medium insert (353095; BD Falcon). The medium used was DMEM containing 10% FBS, 100 U/ml penicillin, 0.1 mg/ml streptomycin and 2 mM L-glutamine. Small molecule inhibitors were provided with medium from c0.
# Immunofluorescence (IF) analysis was performed as described previously (Hayashi et al, 2012). The following primary antibodies were used: chicken anti-GFP (ab13970; Abeam), rabbit anti-DDX4 (ab13840; Abeam), mouse anti-DDX4 (ab27591; Abeam), rabbit anti-DAZL (ab34129; Abeam), goat anti-DAZL (sc-27333; Santa Cruz), rabbit anti-STRA8 (ab49602; Abeam), mouse anti-SYCP3 (ab97672; Abeam) and rabbit anti-TEX14 (ab41733; Abeam)IgG. […]
# [1] = test system: PGCLC induced from BVSCDT ESC(XY); assay: Screening for factors inducing female germ cell fate: DT and BV expression by FACS at c7; conditions: added from c3, read at c7; RA 100 nM, cytokines 500 ng/ml; BMPs in combination with RA
# Experimental: (§1) The PGC/PGCLC expansion medium was constituted of 10% KSR, 2.5% FBS, 0.1 mM NEAA, 1 mM sodium pyruvate, 2 mM L-glutamine, 0.1 mM 2-mercaptoethanol, 100 U/ml penicillin, 0.1 mg/ml […] streptomycin, […] forskolin, and 10 μM rolipram. The entire medium was changed every 2 days from c3. Cytokines/compounds for induction of female fate were provided from c3 to the end of culture. RA and BMP concentrations used were 100 nM and 300 ng/ml, respectively, unless otherwise specified. Brightfield and fluorescence images were captured using an IX73 inverted microscope (Olympus).
# The preparation of d4/c0 PGCLC for FACS is described in “ESC culture/induction and PGCLC induction/culture”. To isolate germ cells in vivo, fetal gonads of BVSC, VR or SG mice were cut and processed for FACS according to the procedure described for d4/c0 PGCLC. Culture PGCLC was also prepared by the same method except that, after dissociation, the cells were washed with 0.1% BSA-DMEM containing 100 μg/ml DNase (Sigma-Aldrich), lysed DNA from dead cells was digested to prevent the formation of cell/debris clumps. Fluorescent activity of BV/SG, SC, or DT/VR was detected with FITC, Horizon V500 or PE-Texas Red channels, respectively. FACS data was analyzed using FlowJo or FACS Diva software package. […]
# cultured PGCLC = assay: Immunofluorescence analysis of STRA8, SCP3, DDX4 in cultured PGCLC; conditions: c9, BMP4, 5, 7 combined with RA, BMS493 with BMP2, LDN193189 with RA and BMP2
# Experimental: as §1
# Immunofluorescence (IF) analysis was performed as described previously (Hayashi et al, 2012). The following primary antibodies were used: chicken anti-GFP (ab13970; Abeam), rabbit anti-DDX4 (ab13840; Abeam), mouse anti-DDX4 (ab27591; Abeam), rabbit anti-DAZL (ab34129; Abeam), goat anti-DAZL (sc-27333; Santa Cruz), rabbit anti-STRA8 (ab49602; Abeam), mouse anti-SYCP3 (ab97672; Abeam) and rabbit anti-TEX14 (ab41733; Abeam)IgG. The following secondary antibodies were used: Alexa Fluor 488-goat anti-mouse or chicken IgG; Alexa Fluor 568-goat anti-rabbit IgG and Alexa Fluor 633-goat anti-mouse, anti-chicken IgG; Alexa Fluor 488-donkey anti-mouse IgG; Alexa Fluor 568-donkey anti-rabbit IgG and Alexa Fluor 633-donkey anti-goat IgG. IF images were acquired using a confocal microscope [FV1000 (Olympus) or LSM780 (Zeiss)].
substance,measurement,setting,value
BMP2: bone morphogenetic protein 2 cytokine (R&D Systems),SCP3-positive (+)/DDX4-strongly positive (+)/SG-negative (−) cells,PGC at E11.5,~22.9%
same,DT and BV expression in BV (+) cells,[1],strongly activated DT and simultaneously down-regulated BV
same,induction of VR/DDX4 and SCP3 (+) cells (meiotic entry),cultured PGCLC,induced VR and SCP3 (+) mitotic cells
